Results from US10703733B2, “MCL-1 inhibitors” (Gilead Sciences, Inc., priority 2018, dated 2020).

Protein sequences, listed by entry. Tags and fused reporters are not part of them. Residues count along the entry.
UniProt Q07820, 171-327 limits assumed: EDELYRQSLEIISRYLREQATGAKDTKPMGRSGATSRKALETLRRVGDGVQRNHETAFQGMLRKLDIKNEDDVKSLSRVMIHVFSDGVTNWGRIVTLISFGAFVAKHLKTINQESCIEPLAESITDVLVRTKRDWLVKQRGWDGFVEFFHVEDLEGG

Key:
[1] = target: MCL-1/Bim interaction (recombinant human MCL-1 protein, residues 171-327; biotinylated human Bim peptide, residues 51-76) (Homo sapiens (Human), UniProt Q07820); experiment: MCL-1/Bim Binding AlphaLISA Assay; conditions: read-out: MCL-1/Bim IC50, 0.0625 nM 6xHis-Mcl-1 (171-327), 0.0625 nM biotinylated-Bim peptide
SKBR3 cells = experiment: SKBR3 Cell Viability Assay (CellTiter Glo); conditions: read-out: MCL-1 CV SKBR3 EC50, 72 hours, CellTiter Glo luminescence

SMILES	IC50 [1] [nM]	EC50 (SKBR3 cells) [nM]
COc1c(C(=O)N[S@@]2(=O)=NC(=O)c3ccc4c(c3)N(C[C@@H]3CC[C@H]3[C@@H](OC)/C=C/C[C@H](C)C2)C[C@@]2(CCCc3cc(Cl)ccc32)CO4)cn(C)[n+]1[O-]	0.045	–
CCC(=O)N[S@]1(=O)=NC(=O)c2ccc3c(c2)N(C[C@@H]2CC[C@H]2[C@@H](OC)/C=C/C[C@H](C)[C@H]1C)C[C@@]1(CCCc2cc(Cl)ccc21)CO3	0.9	1700
COCCC(=O)N[S@@]1(=O)=NC(=O)c2ccc3c(c2)N(C[C@@H]2CC[C@H]2[C@@H](OC)/C=C/CCC1)C[C@@]1(CCCc2cc(Cl)ccc21)CO3	0.3	894
